The source of these data is US20210340500A1, “METHOD FOR PRODUCING INTESTINAL CELLS FROM PLURIPOTENT STEM CELLS” (TOKYO INSTITUTE OF TECHNOLOGY, priority 2018, published 2021).

Sequences of proteins named here, by UniProt entry; tags and fusion partners are left off.
UniProt P08183, whole entry: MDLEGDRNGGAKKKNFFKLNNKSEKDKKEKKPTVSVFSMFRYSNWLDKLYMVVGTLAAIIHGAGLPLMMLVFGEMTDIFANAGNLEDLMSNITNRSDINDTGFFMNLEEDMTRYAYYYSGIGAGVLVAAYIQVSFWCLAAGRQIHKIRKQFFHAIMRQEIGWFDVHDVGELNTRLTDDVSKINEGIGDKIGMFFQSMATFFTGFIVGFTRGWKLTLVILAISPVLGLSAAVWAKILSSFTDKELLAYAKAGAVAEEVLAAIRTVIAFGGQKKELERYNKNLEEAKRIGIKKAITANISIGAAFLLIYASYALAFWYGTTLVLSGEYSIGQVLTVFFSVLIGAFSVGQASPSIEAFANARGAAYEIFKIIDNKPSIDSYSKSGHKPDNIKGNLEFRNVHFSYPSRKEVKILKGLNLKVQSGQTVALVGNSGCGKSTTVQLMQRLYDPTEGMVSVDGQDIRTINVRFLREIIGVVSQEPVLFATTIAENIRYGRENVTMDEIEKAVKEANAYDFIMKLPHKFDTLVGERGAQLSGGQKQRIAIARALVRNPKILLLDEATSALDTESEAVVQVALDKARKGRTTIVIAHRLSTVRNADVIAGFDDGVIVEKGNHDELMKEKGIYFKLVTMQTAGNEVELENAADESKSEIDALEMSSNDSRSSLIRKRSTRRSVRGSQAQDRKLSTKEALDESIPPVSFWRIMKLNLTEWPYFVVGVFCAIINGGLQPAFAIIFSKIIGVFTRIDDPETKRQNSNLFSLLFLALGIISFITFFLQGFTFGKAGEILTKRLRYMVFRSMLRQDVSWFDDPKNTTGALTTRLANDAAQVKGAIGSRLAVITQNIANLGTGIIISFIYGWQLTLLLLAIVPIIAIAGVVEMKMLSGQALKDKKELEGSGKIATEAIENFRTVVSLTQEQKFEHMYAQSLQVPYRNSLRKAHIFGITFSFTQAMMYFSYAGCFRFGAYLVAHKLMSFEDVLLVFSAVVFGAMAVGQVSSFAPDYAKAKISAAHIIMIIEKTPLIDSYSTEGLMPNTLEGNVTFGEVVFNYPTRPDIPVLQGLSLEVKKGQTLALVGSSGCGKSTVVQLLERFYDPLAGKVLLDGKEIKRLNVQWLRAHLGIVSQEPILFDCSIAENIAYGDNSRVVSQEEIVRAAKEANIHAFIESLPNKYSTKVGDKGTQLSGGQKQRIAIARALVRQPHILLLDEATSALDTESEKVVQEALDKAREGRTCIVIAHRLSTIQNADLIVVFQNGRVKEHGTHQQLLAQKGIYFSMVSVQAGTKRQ

The series addresses P-gp (Homo sapiens, UniProt P08183). As to conditions: hiPS-enterocytes cultured in M3-1 or M3-2.

As to rhodamine 123, the “P-gp-mediated efflux of substrate” value was “exhibited P-gp-mediated efflux transporter activity to excrete rhodamine 123 substrate”.
